In patent US20050107430A1, “Antimicrobial and antiviral compounds” (priority 2003, published 2005):

System: various microorganisms
Test: Antimicrobial activity tests, various microorganisms
Details: in words

SMILES: CN1CCN(CCCCNc2cc3c4ccccc4c(NCCCCN4CCN(C)CC4)cc3c3ccccc23)CC1.Cl [Tx-147]
- antimicrobial activity: active against a broad range of resistant organisms
